Literature values, collected in patent US10500232B2, “Small molecule cellular reprogramming to generate neuronal cells” (The J. David Gladstone Institutes, a testamentary trust …, priority 2013, dated 2019).

Protein sequences, listed by entry. Tags and fused reporters are not part of them.
UniProt Q13547, whole entry, species assumed: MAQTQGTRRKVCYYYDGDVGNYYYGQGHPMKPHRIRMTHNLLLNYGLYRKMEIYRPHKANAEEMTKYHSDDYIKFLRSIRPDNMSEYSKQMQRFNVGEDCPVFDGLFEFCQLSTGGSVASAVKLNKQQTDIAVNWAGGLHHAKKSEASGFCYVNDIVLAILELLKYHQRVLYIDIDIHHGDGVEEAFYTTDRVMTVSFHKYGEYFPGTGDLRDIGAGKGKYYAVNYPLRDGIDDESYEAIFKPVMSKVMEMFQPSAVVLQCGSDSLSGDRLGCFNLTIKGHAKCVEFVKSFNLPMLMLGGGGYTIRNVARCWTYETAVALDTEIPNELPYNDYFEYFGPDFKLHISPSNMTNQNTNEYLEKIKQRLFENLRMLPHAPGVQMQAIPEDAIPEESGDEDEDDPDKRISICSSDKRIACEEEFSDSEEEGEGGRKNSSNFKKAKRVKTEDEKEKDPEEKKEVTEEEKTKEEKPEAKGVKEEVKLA

Target: HDAC1 (Homo sapiens, UniProt Q13547)
Conditions: cited from earlier work

Substance: 4,5:8,9-Dianhydro-1,2,6,7,11-pentadeoxy-D-threo-D-ido-undeca-1,6-dienitol [Depudecin]
- IC50: ~4.7 µM
